{"sequences": {"note": "Protein sequences, listed by entry. Tags and fused reporters are not part of them.", "UniProt P14416, whole entry, looked up": "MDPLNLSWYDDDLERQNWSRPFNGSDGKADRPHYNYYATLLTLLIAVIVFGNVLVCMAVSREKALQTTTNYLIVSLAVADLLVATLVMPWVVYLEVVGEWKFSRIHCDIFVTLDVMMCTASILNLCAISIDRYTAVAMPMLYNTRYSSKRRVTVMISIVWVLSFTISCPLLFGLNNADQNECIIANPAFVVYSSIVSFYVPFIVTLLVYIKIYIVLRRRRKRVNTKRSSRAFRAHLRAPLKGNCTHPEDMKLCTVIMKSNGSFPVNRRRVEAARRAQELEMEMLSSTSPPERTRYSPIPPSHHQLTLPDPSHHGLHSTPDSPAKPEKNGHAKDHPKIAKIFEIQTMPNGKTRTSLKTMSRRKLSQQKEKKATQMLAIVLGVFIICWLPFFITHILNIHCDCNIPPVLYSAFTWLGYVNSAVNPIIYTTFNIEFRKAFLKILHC"}, "source": "PubChem BioAssay AID720507", "about": "(National Center for Advancing Translational Sciences (NCATS), 2013)", "note": "The entries are a selection whose mix differs from that of the whole data set. Results filed as inconclusive are left out. Calls of active or inactive are those of the source. The call rests on the fitted dose curve; in most records, active means well fitted activation curve with a large enough effect; inconclusive means small, poorly fitted or top-dose-only effect; inactive means flat fitted curve, though single readings scatter.", "data": [{"target": "D(2) dopamine receptor (Homo sapiens) (UniProt P14416)", "assay": "qHTS of D3 Dopamine Receptor Agonist: D2 Dopamine Receptor B-arrestin Agonist Counterscreen; further: % of control where 0% means no effect; nearly all actives have a fitted effect of over 70% in size", "conditions": "DiscoveRx PathHunter D2 beta-arrestin, luminescence, 90 min, percent relative to full dopamine signal; at 76.9 µM (top of the series)", "from_the_text": "D3 DARs represent a very important target for the treatment of several neuropsychiatric disorders. Indeed, one of the most promising therapeutic applications for the D3 DAR is in the area of addiction and related disorders. […] These findings have been observed with a number of addictive substances including cocaine, amphetamine, nicotine, and alcohol. […] Increased D3 DAR activity can thus lead to neuroprotective and neurorestorative actions in the CNS. […] This assay is used to profile the activity of the identified D3 dopamine receptor agonist against the D2 dopamine receptor. Greater than 10% of the maximum dopamine agonist response is desired for this assay. NIH Molecular Libraries Probe Production Centers Network [MLPCN] NIH Chemical Genomics Center [NCGC] MLPCN Grant: NS064831 Assay Submitter (PI): David Sibley\nDiscoveRx D2 cells were thawed from frozen stock and seeded at 2,100 cells/ 3 uL/well media (DiscoveRx Plating Reagent 2) with MultiDrop Combi dispenser (Thermo Scientific, Logan, UT) onto white tissue culture treated 1536-well Aurora plates (Brooks Automation, Chelmsford, MA) and allowed to attach overnight at 37 deg C, 5% CO2. Next, 23 nL/well of compound solutions in DMSO were added with a pintool transfer (Kalypsis, San Diego, CA). […] The rest of the plate was dispensed with buffer only, 1 uL/well as well. The cells were stimulated by compounds or dopamine control for 90 minutes at 37 deg C, 5% CO2, after which 1.5 ul/well of DiscoveRx detection reagent was added with BioRAPTR FRD dispenser. The detection reagent was prepared by mixing of Galacton Star Substrate, Emerald II solution and PathHunter buffer (supplied by the assay kit) together at 1:5:19 proportion accordingly just prior to dispensing. The plates were incubated at ambient temperature for 1 hour and then the luminescent signal was read on ViewLux plate reader (PerkinElmer, Waltham, MA).", "values": [{"molecule": "Cc1ccc2nc3c(c(C)c2c1)CC(C(Cl)Cl)S3", "note": "(stereo not drawn)", "activation": "inactive: 23.9%"}, {"molecule": "Cc1c2c(nc3ccccc13)SC(C(Cl)Cl)C2", "note": "(stereo not drawn)", "activation": "inactive: 2.06%"}, {"molecule": "O=c1c2cc([N+](=O)[O-])ccc2[nH]c2c([N+](=O)[O-])cc([N+](=O)[O-])cc12", "activation": "inactive: -1.44%"}]}]}
